From patent US20130289100 (The Research Foundation for the State University of New York, published 2013)

Biological target: GluA2Qflip AMPA receptor subunit (Rattus norvegicus, UniProt P19491-2 P19491-2:22-883)
Test: inhibition; closed-channel state, 100 uM glutamate, whole-cell current, -60 mV, pH 7.4, 22 C
Settings: tags: transiently expressed in HEK-293S cells; chain copies: 4 (inferred)

B1: AF44/AF42 pair (ssRNA)
RNA 1: GGGAGAAUUCAACUGCCACGGAUAAUAGCCAAUACUACAACCGU
RNA 2: GGGAACGGUGCCAGUCCGAAACGGAUCGUUAGAGCAUCAGUA
In the case of B1, the Ki is reported as 1500 nM.
